Laboratory results from ChEMBL document CHEMBL1126573, “Non-peptide angiotensin II receptor antagonists. 1. Design, synthesis, and biological activity of N-substituted indoles and dihydroindoles” (J Med Chem, 1993).

Sequences of proteins named here, by UniProt entry; tags and fusion partners are left off.
UniProt P34976, whole entry: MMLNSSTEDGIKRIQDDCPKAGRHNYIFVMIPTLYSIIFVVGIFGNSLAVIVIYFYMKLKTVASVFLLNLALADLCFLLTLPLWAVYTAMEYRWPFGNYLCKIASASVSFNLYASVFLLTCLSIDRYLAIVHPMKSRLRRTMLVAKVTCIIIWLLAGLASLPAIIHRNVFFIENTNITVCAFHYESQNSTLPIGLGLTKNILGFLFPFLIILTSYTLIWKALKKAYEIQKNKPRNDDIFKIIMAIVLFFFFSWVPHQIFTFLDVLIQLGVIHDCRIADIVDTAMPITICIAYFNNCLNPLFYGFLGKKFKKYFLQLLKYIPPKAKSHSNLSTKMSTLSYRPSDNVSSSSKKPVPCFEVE

Target: Type-1 angiotensin II receptor (Oryctolagus cuniculus, UniProt P34976)
Experiment: In vitro antagonist activity against angiotensin II receptor type 1 in rabbit aorta using [125I]-Sar, Ile AII.
Assay type: functional, tissue-based

`CCc1nc2c(C)cc(C)nc2n1Cc1ccc2c(c1)CCN2C(c1ccccc1)c1nnn[nH]1` (stereo unspecified) showed an IC50 of 18 nM.
